Test results taken from patent US10258691B2 (SignPath Pharma Inc., priority 2014, dated 2019).

By UniProt entry, the sequences of proteins in these tests, tags left out. Where a name states a change or a piece, a line headed by the entry shows the natural chain unless it says otherwise.
UniProt Q12809: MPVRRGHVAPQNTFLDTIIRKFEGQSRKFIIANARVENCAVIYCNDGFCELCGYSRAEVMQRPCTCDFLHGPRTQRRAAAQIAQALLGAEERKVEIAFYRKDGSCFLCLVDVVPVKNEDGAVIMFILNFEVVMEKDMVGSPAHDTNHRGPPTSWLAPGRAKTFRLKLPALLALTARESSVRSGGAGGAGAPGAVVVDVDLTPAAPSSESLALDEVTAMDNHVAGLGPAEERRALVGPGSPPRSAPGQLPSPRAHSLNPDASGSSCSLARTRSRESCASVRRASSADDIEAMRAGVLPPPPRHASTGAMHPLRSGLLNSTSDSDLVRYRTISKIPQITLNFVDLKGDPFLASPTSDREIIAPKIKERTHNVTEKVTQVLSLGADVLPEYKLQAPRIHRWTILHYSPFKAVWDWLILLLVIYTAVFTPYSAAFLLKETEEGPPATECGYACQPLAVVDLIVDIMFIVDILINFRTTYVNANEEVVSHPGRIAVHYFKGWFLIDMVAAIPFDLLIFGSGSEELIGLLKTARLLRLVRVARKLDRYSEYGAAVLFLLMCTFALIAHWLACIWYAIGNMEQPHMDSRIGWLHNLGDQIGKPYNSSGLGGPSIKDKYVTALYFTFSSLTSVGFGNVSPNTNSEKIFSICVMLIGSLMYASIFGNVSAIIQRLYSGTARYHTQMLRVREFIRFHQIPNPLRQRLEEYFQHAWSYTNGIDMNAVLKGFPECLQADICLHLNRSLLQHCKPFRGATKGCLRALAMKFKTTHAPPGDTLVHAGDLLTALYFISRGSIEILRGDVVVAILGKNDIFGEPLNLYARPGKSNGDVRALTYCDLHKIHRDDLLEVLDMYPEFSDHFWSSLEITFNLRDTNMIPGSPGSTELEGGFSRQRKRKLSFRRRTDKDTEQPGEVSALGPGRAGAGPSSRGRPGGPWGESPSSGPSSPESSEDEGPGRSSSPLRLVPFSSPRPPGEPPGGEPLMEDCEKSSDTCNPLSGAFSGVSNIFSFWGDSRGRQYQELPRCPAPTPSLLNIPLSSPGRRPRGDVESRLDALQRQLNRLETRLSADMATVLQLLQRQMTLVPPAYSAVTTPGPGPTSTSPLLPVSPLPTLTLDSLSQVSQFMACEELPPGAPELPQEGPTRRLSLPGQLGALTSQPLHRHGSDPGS

Assays:
hERG [1] = target: T1, hERG (Homo sapiens, UniProt Q12809); assay: Whole-cell patch-clamp, protective effect of 10:0-18:0 Lyso PG and 14:0 EGPG against hERG inhibition by Nilotinib; format: cell-based; parameters: expressed in transfected cells; host or cells: HEK 293, stably transfected with the hERG gene (HEK-hERG); conditions: Nilotinib 0.5 μg/mL, lipid […]
hERG [2] = target: T1, hERG; assay: Whole-cell patch-clamp, protective effect of DMPC, DMPG, DMPC/DMPG, LysoPG and LysoPC against hERG inhibition by Nilotinib; conditions: hERG tail current density relative to baseline 1.000; HEK 293; 5 min exposure; Nilotinib 0.1 μM (alone in DMSO, with lipid in aqueous solution); 14:0 LysoPG […]

Cc1cn(-c2cc(NC(=O)c3ccc(C)c(Nc4nccc(-c5cccnc5)n4)c3)cc(C(F)(F)F)c2)cn1 [Nilotinib, reference compound]
Corrected Normalized Current Density (hERG [1]; corrected for solvent effect and run-down): 0.301* | Normalized Current Density (hERG [1]; hERG tail current density relative to baseline 1.000, HEK 293): 0.154 | Normalized Current Density (hERG [2]): 0.308

Marks after values point to notes of the source that are not given here.
